Assay [1] concerns the target T1, Histone deacetylase 8 (Homo sapiens) (UniProt Q9BY41).
T1 sequence (whole entry): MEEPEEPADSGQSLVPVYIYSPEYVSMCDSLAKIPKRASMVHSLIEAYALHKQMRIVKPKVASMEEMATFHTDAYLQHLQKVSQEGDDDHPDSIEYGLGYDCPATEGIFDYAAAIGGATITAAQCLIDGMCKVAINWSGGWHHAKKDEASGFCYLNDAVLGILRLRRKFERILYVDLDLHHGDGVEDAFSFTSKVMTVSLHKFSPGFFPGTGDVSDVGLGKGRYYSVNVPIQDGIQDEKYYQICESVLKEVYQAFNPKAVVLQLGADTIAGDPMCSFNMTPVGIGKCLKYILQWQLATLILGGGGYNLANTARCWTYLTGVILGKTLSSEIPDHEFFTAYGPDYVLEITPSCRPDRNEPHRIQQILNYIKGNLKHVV
The assay is described as follows: Inhibition of recombinant human HDAC8 using Boc-Lys (trifluoroacetyl)-AMC as substrate ay 35 uM preincubated for 1 hr followed by substrate addition and measured after 1 hr by micro plate reader analysis.

Chains of the proteins cited; added tags and fusions are not shown. Lines headed by an entry give the natural chain unless they say otherwise; changes in a name come on top.
UniProt P56524: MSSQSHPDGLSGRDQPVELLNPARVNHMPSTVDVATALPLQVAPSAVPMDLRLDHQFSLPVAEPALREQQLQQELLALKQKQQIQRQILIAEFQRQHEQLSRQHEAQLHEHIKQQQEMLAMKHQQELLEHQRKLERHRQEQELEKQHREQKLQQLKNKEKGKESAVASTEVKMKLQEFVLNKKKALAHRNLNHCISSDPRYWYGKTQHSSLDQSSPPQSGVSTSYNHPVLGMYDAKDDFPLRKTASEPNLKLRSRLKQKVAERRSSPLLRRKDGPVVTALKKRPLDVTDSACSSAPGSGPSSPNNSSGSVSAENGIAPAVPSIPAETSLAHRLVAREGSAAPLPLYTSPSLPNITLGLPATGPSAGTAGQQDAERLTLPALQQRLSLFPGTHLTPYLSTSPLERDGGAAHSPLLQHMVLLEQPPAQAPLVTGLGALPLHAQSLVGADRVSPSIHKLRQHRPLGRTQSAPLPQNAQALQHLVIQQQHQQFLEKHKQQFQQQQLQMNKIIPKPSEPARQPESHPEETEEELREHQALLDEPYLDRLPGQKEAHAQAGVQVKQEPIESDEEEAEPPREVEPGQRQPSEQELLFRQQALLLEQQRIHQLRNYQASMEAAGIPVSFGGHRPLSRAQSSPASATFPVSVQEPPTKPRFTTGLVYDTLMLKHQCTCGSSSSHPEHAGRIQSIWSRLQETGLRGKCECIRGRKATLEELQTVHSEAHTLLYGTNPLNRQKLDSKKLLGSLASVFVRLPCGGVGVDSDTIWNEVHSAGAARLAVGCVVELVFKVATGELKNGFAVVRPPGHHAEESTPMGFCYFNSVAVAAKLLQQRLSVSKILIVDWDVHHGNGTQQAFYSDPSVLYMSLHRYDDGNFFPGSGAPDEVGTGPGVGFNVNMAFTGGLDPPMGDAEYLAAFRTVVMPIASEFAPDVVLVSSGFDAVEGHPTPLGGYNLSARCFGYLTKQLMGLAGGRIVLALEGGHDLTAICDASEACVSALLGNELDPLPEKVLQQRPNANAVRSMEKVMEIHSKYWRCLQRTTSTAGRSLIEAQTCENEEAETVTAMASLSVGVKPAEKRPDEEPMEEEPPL

In assay [2] the target is T2, Histone deacetylase 4 (Homo sapiens, UniProt P56524). As to the kind of experiment: Inhibition of recombinant human HDAC4 using Boc-Lys (trifluoroacetyl)-AMC as substrate ay 35 uM preincubated for 1 hr followed by substrate addition and measured after 1 hr by micro plate reader analysis.
Assay [3] has as its target T2, Histone deacetylase 4. The assay is described as follows: Inhibition of recombinant human HDAC4 using Boc-Lys (trifluoroacetyl)-AMC as substrate preincubated for 1 hr followed by substrate addition and measured after 1 hr by micro plate reader analysis.

As a reminder, the IC50 is the midpoint of a concentration-inhibition curve.

Active and inactive are the calls of the source. The rule behind the calls is not given here.

On to `O=C(COc1ccc2cc(/C=C3/SC(=O)NC3=O)ccc2c1)Nc1ccc([N+](=O)[O-])cc1`, for which the inhibition entry in assay [1] and in assay [2] was “Active” each time.
For the compound `O=C(COc1ccc2cc(/C=C3/SC(=O)NC3=O)ccc2c1)Nc1ccc(Br)cc1`, the inhibition result in assay [1] and in assay [2] was “Active” in each case.
For `Cc1ccc(NC(=O)COc2ccc3cc(/C=C4/SC(=O)NC4=O)ccc3c2)cc1`, the inhibition result in assay [1] and in assay [2] was “Active” each time.
As to `COc1ccc(Cn2ccc3ccc(C(=O)NO)cc32)cc1`, in assay [3], the IC50 stood at 10 µM.
For the compound `O=C(COc1ccc2cc(/C=C3/SC(=O)NC3=O)ccc2c1)Nc1ccc(Br)cc1F`, the inhibition result in assay [1] and in assay [2] was “Active” in each case.
Take `O=C(COc1ccc2cc(/C=C3/SC(=O)NC3=O)ccc2c1)Nc1c(F)cc(F)cc1Br`: the inhibition result in assay [1] and in assay [2] was “Active” in each case.
Turning to `Cc1cc(Br)ccc1NC(=O)COc1ccc2cc(/C=C3/SC(=O)NC3=O)ccc2c1`, the inhibition entry in assay [1] and in assay [2] was “Active” throughout.

The record behind these values is ChEMBL document CHEMBL5038586, “Thiazolidinedione "Magic Bullets" Simultaneously Targeting PPARγ and HDACs: Design, Synthesis, and Investigations of their In Vitro and In Vivo Antitumor Effects” (J Med Chem, 2021).
